{
  "source": "patent US20140205660A1",
  "about": "“Abscisic acid against cancer” (priority 2013, published 2014)",
  "key": {"[1]": {"details": "rats fed with diet containing ABA; cited from earlier work"}, "[2]": {"details": "different animal experiments; cited from earlier work"}, "[3]": {"details": "cited from earlier work"}, "[4]": {"details": "cited from earlier work", "remark": "listed apart in the source"}, "[5]": {"assay": "ABA ionization versus pH from HPLC retention factors (Kelen 2004)", "assay_type": "physicochemical", "details": "rounded value in brackets", "from_the_text": "Research of Kelen et al. 2004, denominated “Separation of Abscisic acid, Indole-3-acetic, Gibberellic Acid in 99r (Vitis berlandieri×Vitis rupestris) and Rose Oil (Rosa damascena mill.) by Reversed Phase Liquid Chromatography” may help to determine and verify ABA dissociation according the pH. In this study it is considered that, retention in the mobile phase of carboxylic groups which are contained in these hormones depends on the percentage of ionized and non-ionized species. […] Measurement of ABA pK value in the assay was calculated (pK=5.82) at 30% of acetonitrile. The ABA dissociation in the assay can be verified by using the Henderson-Hasselbalch equation as follows:\npH=pk+log [BASE/ACID]→4=5.82+log [BASE/ACID]\n−1.82=log [BASE/ACID]→antilog(−1.82)=[BASE/ACID]\nThe result of the calculation is a proportion as follows:\nAlso retention factors can be transformed in percent of non-ionized and ionized forms as follows: […]"}, "[6]": {"details": "rat; cited from earlier work"}, "[7]": {"details": "cited from earlier work", "remark": "listed apart in the source"}, "[8]": {"details": "cited from earlier work", "remark": "listed apart in the source"}, "[9]": {"details": "in vivo; cited from earlier work"}, "[10]": {"test_system": "Chinese hamster ovary (CHO) cells", "details": "cited from earlier work"}},
  "note": "Where two headings read alike, the source gives them in different places.",
  "data": [
    {"substance": "[S-(Z,E)]-5-(1-Hydroxy-2,6,6-trimethyl-4-oxo-2-cyclohexen-1-yl)-3-methyl-2,4-pentadienoic acid [ABA]", "values": [
      {"measurement": "ABA concentration in brain tissue", "setting": "[1]", "result": "248-429 ng/100 g of fresh weight"},
      {"measurement": "side effects", "setting": "[2]", "result": "no side effects"},
      {"measurement": "half-life", "setting": "[3]; administered orally", "result": "about 4 hours"},
      {"measurement": "time until activity detectable in circulation", "setting": "[3]; injected intraperitoneal", "result": "≤ 30", "unit": "min"},
      {"measurement": "pK", "setting": "[4]; at 30% of acetonitrile (Kelen 2004)", "result": 5.82},
      {"measurement": "pK", "setting": "[4]; value used in Henderson-Hasselbalch equation", "result": 4.7},
      {"measurement": "% OF IONIZED (ABA^− + H^+)", "setting": "[5]; pH 5", "result": "3.5 (0) %"},
      {"measurement": "% OF NON-IONIZED (ABAH)", "setting": "[5]; pH 5", "result": "96.5 (100) %"},
      {"measurement": "% OF IONIZED (ABA^− + H^+)", "setting": "[5]; pH 5.5", "result": "27.8 (30) %"},
      {"measurement": "% OF NON-IONIZED (ABAH)", "setting": "[5]; pH 5.5", "result": "72.1 (70) %"},
      {"measurement": "% OF IONIZED (ABA^− + H^+)", "setting": "[5]; pH 6.0", "result": "56.4 (60) %"},
      {"measurement": "% OF NON-IONIZED (ABAH)", "setting": "[5]; pH 6.0", "result": "43.5 (40) %"},
      {"measurement": "% OF IONIZED (ABA^− + H^+)", "setting": "[5]; pH 7.0", "result": "86.4 (90) %"},
      {"measurement": "% OF NON-IONIZED (ABAH)", "setting": "[5]; pH 7.0", "result": "13.5 (10) %"},
      {"measurement": "acute oral median lethal dose (LD50)", "setting": "[6]", "result": "> 5000", "unit": "mg/kg"},
      {"measurement": "solubility in methanol", "setting": "[7]; methanol", "result": 50, "unit": "mg/mL"},
      {"measurement": "solubility", "setting": "[7]; organic solvents", "result": "soluble in many organic solvents"},
      {"measurement": "ABA degradation", "setting": "[8]; adding any type of antioxidant", "result": "zero"},
      {"measurement": "ABA degradation", "setting": "[8]; ambient temperature, 21 months", "result": 75, "unit": "%"},
      {"measurement": "ABA degradation", "setting": "[8]; brown PE bottles, no antioxidant or UV absorbent, 33 days at 53 degrees centigrade", "result": 8, "unit": "%"},
      {"measurement": "effect in animals and treated cells", "setting": "[9]", "result": "very little effect"},
      {"measurement": "ABA activity retained", "setting": "[10]; after 24 hours of incubation with CHO cells", "result": "about 60%"},
      {"measurement": "ABA activity retained", "setting": "[10]; after 48 hours of incubation with CHO cells", "result": "around 23%"}
    ]}
  ]
}
